## Antibody variant affinities, Ab-14 light chain, assay B

Reference: Li et al. 2023, doi:10.1038/s41467-023-39022-2. File: FLAb, binding data.

All variants were tested on one target, the spike HR2 peptide PDVDLGDISGINAS (SARS-CoV-2).

Ab-14 is the parent antibody, in scFv form: VH, then the linker GGGGSGGGGSGGGGS, then VL. The heavy chain is unchanged in all variants.
VH: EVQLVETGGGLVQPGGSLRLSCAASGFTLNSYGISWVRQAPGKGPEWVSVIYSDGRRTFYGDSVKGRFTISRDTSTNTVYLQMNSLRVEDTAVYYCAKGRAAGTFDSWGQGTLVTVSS
VL: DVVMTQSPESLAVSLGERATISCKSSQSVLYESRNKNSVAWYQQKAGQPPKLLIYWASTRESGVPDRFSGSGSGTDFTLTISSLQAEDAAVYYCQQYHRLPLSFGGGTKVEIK

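The variants were designed computationally from a first round of random CDR variants and then made and measured. Their group label is 14L_GP_HC (GP: Gaussian process model; HC: hill climbing; a sequence that several methods proposed may carry one label only). The assay is AlphaSeq: two haploid yeast populations carry antibody and antigen on their surface. The frequency of each diploid, read from paired DNA barcodes, reflects how well the two displayed proteins bind. Scores were corrected for input abundance and mapped to Kd with protein pairs of known affinity run in the same pool. Mating was done six times.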

Substitutions are numbered in sequence along the VL above, starting at 1 (not Kabat). Values are log10 of the apparent Kd in nM; lower means stronger binding. A pair that was not seen in that replicate is written "nd"; this usually means weak binding, but a binder can also be missed. A sequence measured in both rounds can read differently, since the two assays cover different ranges.

| changes | log10 Kd (nM) by replicate | empty controls |
|---|---|---|
| S25F+S28W+N35A+W56N | 1.16 / 1.07 / 0.85 / 0.99 / 0.23 / 0.88 | 1/18 (2.55) |
| S26Q+V29Q+L30E+W56H | 0.34 / 0.18 / 0.17 / -0.05 / 0.43 / 0.49 | 0/18 |
| S25V+N35M+W56N+E61F | 0.25 / 0.13 / 0.04 / 0.16 / 0.26 / 0.24 | 0/18 |
| Q27S+V29Y+W56E+S103M | 0.16 / 0.11 / -0.27 / -0.04 / -0.41 / 0.30 | 0/18 |
| V29W+L30W+W56G | -0.28 / -0.34 / -0.41 / -0.58 / -0.37 / -0.46 | 0/18 |
| S25E+S33W+W56D | 1.26 / 0.36 / 0.91 / 1.65 / 0.52 / 0.88 | 0/18 |
| Y31P+W56D+E61M | 0.17 / -0.17 / -0.24 / -0.33 / -0.15 / -0.07 | 0/18 |
| S25Q+S28E+V29K+W56D+A57G | -0.15 / -0.23 / -0.33 / -0.48 / -0.38 / -0.48 | 0/18 |
| S25L+S26R+S28Q+V29T+W56M+S62E | 0.43 / -0.03 / -0.01 / 0.01 / 0.00 / 0.10 | 1/18 (1.82) |
| S25F+N35T+W56N+Q96N | 0.30 / 0.12 / -0.07 / -0.21 / 0.10 / 0.07 | 0/18 |
| S25L+V29F+S38A+W56G | 1.21 / 0.46 / 1.15 / 0.72 / 0.40 / 1.07 | 0/18 |
| Q27I+S28L+V29Y+Y31E+W56E | 0.46 / 0.19 / 0.01 / 0.26 / 0.24 / 0.44 | 2/18 (2.70) |
| S26L+V29W+N35D+W56H+S62D | nd / nd / nd / nd / nd / nd | 1/18 (0.78) |
| Y31Q+S33P+W56D | 0.59 / 0.17 / 0.06 / 0.00 / 0.23 / 0.34 | 0/18 |
| S25Q+Y31E+K36C+W56D | 0.26 / 0.40 / 0.40 / -0.02 / 0.13 / 0.25 | 1/18 (2.64) |
| S25V+Q27F+V29W+W56E | 0.13 / -0.09 / -0.35 / -0.31 / -0.44 / -0.26 | 0/18 |
| S25L+S26R+V29T+W56Q+S103F | -0.09 / 0.01 / -0.28 / -0.28 / 0.15 / -0.10 | 0/18 |
| S25F+S28W+V29H+N35T+W56N | -0.07 / -0.29 / -0.83 / -0.43 / 0.66 / -0.40 | 0/18 |
| S25L+S26V+Q27N+V29T+N35Q+W56H | 0.72 / 0.64 / 0.62 / 0.47 / 0.67 / 0.89 | 0/18 |
| Q27I+V29Y+Y31I+W56E+S62Q | -0.04 / -0.06 / -0.22 / -0.36 / -0.15 / 0.20 | 0/18 |
| S26P+V29H+W56H+S62D+Q96S | 0.58 / 0.46 / 0.25 / 0.56 / 0.51 / 0.74 | 0/18 |
| S25Y+S26Y+Q27P+V29Y+W56H | 0.52 / 0.49 / 0.46 / 0.15 / 0.61 / 0.64 | 1/18 (2.38) |
| Q27I+V29Y+Y31E+E32L+W56E | -0.08 / -0.28 / -0.21 / -0.43 / -0.17 / -0.21 | 1/18 (2.95) |
| S25V+Y31F+W56D+T59F | -0.17 / -0.31 / -0.21 / -0.42 / -0.20 / -0.10 | 1/18 (2.27) |
| Q27W+V29G+W56E | 0.09 / -0.24 / -0.16 / -0.32 / -0.26 / -0.16 | 1/18 (3.20) |
| S25L+S26R+V29T+L30N+W56N+Q96I | 0.68 / 0.25 / -0.17 / 0.58 / -0.37 / 1.16 | 0/18 |
| S25L+V29A+W56G+A57G | 0.02 / 0.01 / -0.18 / 0.08 / 0.10 / 0.20 | 0/18 |
| K24H+S25L+Q27M+W56N+S103N | 0.25 / -0.12 / -0.24 / -0.09 / -0.19 / -0.11 | 1/18 (2.48) |
| Q27I+V29L+W56E+T59Q | 0.35 / 0.70 / 0.53 / 0.24 / 0.18 / 0.52 | 0/18 |
| Q27I+V29Y+L30E+R34M+W56N+A57G | 1.88 / nd / nd / 0.92 / 0.85 / 1.23 | 1/18 (1.46) |
| S25V+S26E+V29I+L30N+W56N | 0.00 / -0.10 / 0.00 / -0.26 / -0.05 / -0.04 | 0/18 |
| Q27Y+R34H+W56N+E61M | 1.69 / 1.19 / 0.87 / 1.16 / 1.73 / 1.41 | 1/18 (2.61) |
| S25T+S26P+S28G+W56G+T59V | -0.15 / -0.38 / -0.31 / -0.35 / -0.35 / -0.45 | 1/18 (3.18) |
| S26L+Y31E+W56H+S62D+R99Q | 1.87 / 1.57 / 1.92 / 1.17 / 1.60 / 1.58 | 1/18 (2.27) |

The closing 5 entries, repeated:

| changes | log10 Kd (nM) by replicate | empty controls |
|---|---|---|
| Q27I+V29Y+L30E+R34M+W56N+A57G | 1.88 / nd / nd / 0.92 / 0.85 / 1.23 | 1/18 (1.46) |
| S25V+S26E+V29I+L30N+W56N | 0.00 / -0.10 / 0.00 / -0.26 / -0.05 / -0.04 | 0/18 |
| Q27Y+R34H+W56N+E61M | 1.69 / 1.19 / 0.87 / 1.16 / 1.73 / 1.41 | 1/18 (2.61) |
| S25T+S26P+S28G+W56G+T59V | -0.15 / -0.38 / -0.31 / -0.35 / -0.35 / -0.45 | 1/18 (3.18) |
| S26L+Y31E+W56H+S62D+R99Q | 1.87 / 1.57 / 1.92 / 1.17 / 1.60 / 1.58 | 1/18 (2.27) |

Of ten entries with the parent sequence, four were seen in most replicates (averages 0.34 to 2.37), three in one and three in none, so single entries are noisy. Three control strains display no target. For all light chain designs, 4% of the pairings with them gave a signal, with a median of 2.64 and one signal in twenty below 1.59, so weak values seen in few replicates may be background. For each scFv, signals with the empty controls are counted beside the result, with their mean in brackets. The authors averaged sequences with at least three values out of six and counted those with two or fewer as poor binders.